The values that follow come from patent publication US20210364527A1, “Methods and compositions for protein sequencing” (QUANTUM SI, published 2021).

Experiment [1] concerns the target T1, FA peptide (N-terminal phenylalanine, penultimate alanine; rest of sequence not given).
T1 construct: they may differ; Dye- or FITC-labelled in some assays; also called phenylalanine peptide; N-terminal FA peptide
Briefly: stopped-flow, complex mixed with excess unlabelled trap peptide.

Experiment [2] addresses T2, FITC-labeled FA peptide FAKLDEESILKQK-FITC (C-terminal FITC).
T2 peptide: FAKLDEESILKQK
Briefly: fluorescence polarization, FITC-peptide with ClpS:streptavidin complex, 23 C. Background: Fluorescence polarisation rises when a labelled molecule tumbles more slowly, as on binding a larger partner.

For experiment [3], the target named is T3, FITC-labeled YA peptide YAKLDEESILKQK-FITC (C-terminal FITC).
T3 peptide: YAKLDEESILKQK
The experiment is described as above.

Experiment [4] has as its target T4, FITC-labeled WA peptide WAKLDEESILKQK-FITC (C-terminal FITC).
T4 peptide: WAKLDEESILKQK
The experiment is described as above.

The target in experiment [5] is T5, peptide having an N-terminal tryptophan residue (rest of sequence not given). Briefly: single-molecule pulse analysis, ATTO 532-labeled ClpS2.
The target in experiment [6] is T6, peptide having an N-terminal (unmodified) tyrosine residue (rest of sequence not given).
T6 construct: these may be different peptides
The experiment is described as above.

Experiment [7] concerns the target T7, peptide having an N-terminal phenylalanine residue (rest of sequence not given). Described as above.
Experiment [8] has as its target T5, peptide having an N-terminal tryptophan …. The description is as above. This is another data set of the same source.
In experiment [9] the target is T6, peptide having an N-terminal …. The description is as above. The source holds these as a separate data set.
Experiment [10] deals with T7, peptide having an N-terminal …. The description is as above. The source holds these as a separate data set.
Experiment [11] concerns the target T1, FA peptide (N-terminal phenylalanine, …). In words: fluorescence polarization.
Experiment [12] addresses T5, peptide having an N-terminal tryptophan …. Briefly: single-molecule pulse analysis, ATTO 532-labeled ClpS2; histogram B.
The target of experiment [13] is T6, peptide having an N-terminal …. The experiment is described as above.
The target of experiment [14] is T7, peptide having an N-terminal …. The experiment is described as above.
Experiment [15] concerns the target T5, peptide having an N-terminal tryptophan …. Briefly: single-molecule pulse analysis, ATTO 532-labeled ClpS2; histogram A.
For experiment [16], the target named is T6, peptide having an N-terminal …. Described as above.
Experiment [17] has as its target T7, peptide having an N-terminal …. The description is as above.
Experiment [18] has as its target T8, YA peptide (N-terminal tyrosine, penultimate alanine; rest of sequence not given).
T8 construct: they may differ; also called tyrosine peptide
Briefly: binding polarization assay, ensemble measurement.

Experiment [19] deals with T9, WA peptide (N-terminal tryptophan, penultimate alanine; rest of sequence not given).
T9 construct: they may differ; also called tryptophan peptide
In words: binding polarization assay, ensemble measurement.

Experiment [20] deals with T1, FA peptide (N-terminal phenylalanine, …). In words: binding polarization assay, ensemble measurement.

B1: Agrobacterium tumifaciens ClpS2 variant 1 (atClpS2-V1) (designed binder)
chain: MSDSPVDLKPKPKVKPKLERPKLYKVMLLNDDYTPMSFVTVVLKAVFRMSEDTGRRVMMTAHRFGSAVVVVCERDIAETKAKEATDLGKEAGFPLMFTTEPEE
What is called koff is the first-order rate constant of dissociation. The low end stands for slow dissociation, the high end for fast dissociation. A word on the Kd: it is the concentration at which binding is half-saturated. On to B1, for which the off-rate (koff) in experiment [1] was found to be 1.19 s⁻¹. Moreover, the binding result in experiment [2], in experiment [3] and in [4] was “binds” in each case. Further, the entries for the “mean inter-pulse duration (u)” value in experiment [5], in experiment [6] and in experiment [7] were 3.94 s, 3.73 s and 3 s, respectively. The “mean pulse duration (u)” value worked out at 0.06 s in experiment [8]; 0.09 s in experiment [9]; 0.14 s in experiment [10]; 0.06 s in experiment [15]; 0.09 s in [16]; 0.15 s in experiment [17]. Besides, the dissociation constant Kd in experiment [11] is 0.185 µM; in experiment [18], 2.05 µM; in experiment [19] it was 3.51 µM; in experiment [20], 0.743 µM. The “mean pulse duration (u), as the axis of panel B is labelled” value in [12] was 0.04 s; in experiment [13] it was 0.06 s; in [14], 0.09 s.

B2: PS610 (Bis-atClpS2-V1, Linker 2) (designed binder)
chain: MSDSPVDLKPKPKVKPKLERPKLYKVMLLNDDYTPMSFVTVVLKAVFRMSEDTGRRVMMTAHRFGSAVVVVCERDIAETKAKEATDLGKEAGFPLMFTTEPEEGSAGSAAGSGEFMSDSPVDLKPKPKVKPKLERPKLYKVMLLNDDYTPMSFVTVVLKAVFRMSEDTGRRVMMTAHRFGSAVVVVCERDIAETKAKEATDLGKEAGFPLMFTTEPEEGHHHHHHHHHHGGGSGGGSGGGSGLNDFFEAQKIEWHEGGGSGGGSGGGSGLNDFFEAQKIEWHE
In the case of B2, binding in experiment [11] was characterised by a dissociation constant (Kd) of 0.271 µM.
